Experimental findings from US20250205178A1, “METHODS AND COMPOSITIONS FOR INHIBITING VIRAL […]” (ARIZONA BOARD OF REGENTS ON BEHALF OF THE UNIVERSITY OF …, priority 2022, published 2025) are described below.

The experiment concerns ZIKV (ZIKA-Venus).

As to `CC(=O)c1cc(O)c2ccccc2c1O` [NSC 111552], the EC50 is 1.4 µM.
In the case of `COCCn1c2nc(=O)n(-c3ccccc3)c(=O)c-2nc2ccccc21` [NSC 288387] it was 0.2 µM.
